Values quoted from earlier work, collected in US11136352B2, “Immunotherapy against several tumors including neuronal and brain tumors” (IMMATICS BIOTECHNOLOGIES GMBH, priority 2008, dated 2021).

Target: HLA-A*0201 (Homo sapiens, UniProt P04439, /I218V/L300P/L318F/N151K/N90K/P208A/P217A/Q86G/Q94H/R138H/R169H/T345S)
Conditions: known binder; cited from earlier work

## FLPSDFFPSV [HBV-001]
  Binding to A*02 (positive control): strong A*02 binder
